Chains of the proteins cited; added tags and fusions are not shown. Residues count along the entry.
UniProt P55085, 26-397 limits assumed: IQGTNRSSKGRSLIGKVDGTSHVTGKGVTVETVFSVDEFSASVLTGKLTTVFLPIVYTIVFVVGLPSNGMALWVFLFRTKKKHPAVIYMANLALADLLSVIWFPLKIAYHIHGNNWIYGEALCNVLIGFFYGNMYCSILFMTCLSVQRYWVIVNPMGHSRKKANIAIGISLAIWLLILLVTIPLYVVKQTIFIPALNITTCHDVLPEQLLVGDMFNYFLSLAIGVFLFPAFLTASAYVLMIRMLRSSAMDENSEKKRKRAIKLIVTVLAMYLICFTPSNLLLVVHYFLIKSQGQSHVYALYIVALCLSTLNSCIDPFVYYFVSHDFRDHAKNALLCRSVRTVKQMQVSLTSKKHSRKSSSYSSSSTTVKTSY

In patent US20240376109A1, “PYRAZOLO[1,5-A]PYRIMIDINE COMPOUND FOR THE TREATMENT OF DERMAL DISORDERS” (OTSUKA PHARMACEUTICAL CO., LTD., priority 2021, published 2024):

Target: PAR2 (Homo sapiens, UniProt P55085)
Assay: Intracellular calcium concentration measurement (SLIGKV-NH2-induced calcium change, Fluo-8, FDSS/μCELL)
Format: cell-based
Conditions: HEK293 cells; SLIGKV-NH2 10 μM-induced intracellular calcium change

SMILES	IC50
CCC(C)c1cc(CC2CCCCCC2)nc2cc(C(=O)N3CCCCCCC3)nn12 (centres unmarked)	257 nM
CCC(CC)c1cc(CC2CCCC2)nc2cc(C(=O)N3CCCC(OC)C3(C)C)nn12 (centres unmarked)	41 nM
